Measured values from PubChem BioAssay AID485346 (Sanford-Burnham Center for Chemical Genomics, 2010).
This is a selection; strong and weak results do not stand in their true shares. Some results for these compounds are left out of this collection, so the calls shown say nothing about other tests. Activity calls are given as the source filed them.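 The calls were made as follows: active = inhibition of at least 50% at 8 µM in the primary screen; inactive = the rest.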

Chains of the proteins cited; added tags and fusions are not shown.
UniProt O15151, whole entry, looked up: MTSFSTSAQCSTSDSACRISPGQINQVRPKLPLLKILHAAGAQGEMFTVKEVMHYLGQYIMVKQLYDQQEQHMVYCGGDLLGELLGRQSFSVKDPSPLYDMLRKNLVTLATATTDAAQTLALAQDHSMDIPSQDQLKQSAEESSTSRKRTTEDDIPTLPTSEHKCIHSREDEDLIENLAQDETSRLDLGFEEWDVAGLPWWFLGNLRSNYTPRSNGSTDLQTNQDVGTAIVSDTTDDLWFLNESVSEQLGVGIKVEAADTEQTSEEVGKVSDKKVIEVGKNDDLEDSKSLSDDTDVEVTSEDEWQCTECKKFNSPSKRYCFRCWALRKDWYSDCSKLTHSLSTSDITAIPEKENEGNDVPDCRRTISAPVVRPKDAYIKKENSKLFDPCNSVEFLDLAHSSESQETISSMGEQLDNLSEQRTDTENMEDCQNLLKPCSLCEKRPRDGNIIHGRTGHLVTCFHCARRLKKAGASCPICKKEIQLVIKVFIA
UniProt Q00987, whole entry, looked up: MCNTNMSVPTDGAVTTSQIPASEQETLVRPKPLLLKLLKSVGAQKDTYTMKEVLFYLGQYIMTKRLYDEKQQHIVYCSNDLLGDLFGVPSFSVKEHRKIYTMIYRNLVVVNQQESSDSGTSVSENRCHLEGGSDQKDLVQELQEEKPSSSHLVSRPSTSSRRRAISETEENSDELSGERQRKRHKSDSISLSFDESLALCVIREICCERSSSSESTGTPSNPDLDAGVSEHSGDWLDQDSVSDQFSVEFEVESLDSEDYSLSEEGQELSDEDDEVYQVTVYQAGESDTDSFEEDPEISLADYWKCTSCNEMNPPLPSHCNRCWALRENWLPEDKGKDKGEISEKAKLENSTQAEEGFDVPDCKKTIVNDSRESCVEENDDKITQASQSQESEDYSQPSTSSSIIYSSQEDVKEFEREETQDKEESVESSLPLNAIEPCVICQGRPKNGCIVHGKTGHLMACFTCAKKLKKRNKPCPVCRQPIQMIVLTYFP

These compounds were tested against Protein Mdm4 (Homo sapiens) + E3 ubiquitin-protein ligase Mdm2 (Homo sapiens) (UniProt O15151+Q00987) (assay: disruptors of Mdm2/MdmX RING complex – cell-based, luminescence, split luciferase, SaOS-2, uHTS, primary screen (AID 485346)). Details: SaOS-2 split-luciferase Mdm2/MdmX complementation, at 8 µM, active compounds read high.

Row | SMILES | inhibition
1 | C=CCN1CCN(CCOC(=O)C(O)(c2ccccc2)c2ccccc2)CC1 | inactive: 7.81%
2 | O=C(NCC1(N2CCCCC2)CCCCC1)c1cc(F)c(F)cc1Cl | inactive: -8.81%
3 | COc1ccc(C(=O)NCC2(N(C)C)CCCCC2)cc1 | inactive: 10.7%
4 | Cc1cc(C(=O)NCC2(N3CCCCC3)CCCCC2)ccc1[N+](=O)[O-] | inactive: -55%
5 | CCN1CCCC(OC(=O)C2(O)c3ccccc3C=Cc3ccccc32)C1 (centres undefined) | inactive: 3.73%
6 | O=C(NCC1(N2CCCCC2)CCCCC1)c1cccc(Br)c1 | inactive: 1.54%
7 | Cc1ccccc1C(=O)NCC1(N2CCCCC2)CCCCC1 | inactive: 14.5%
8 | CN(C)C1CCCC1OC(=O)C(O)(c1ccccc1)c1ccccc1 (centres undefined) | inactive: -17.4%
9 | CN(C)c1ccc(C(=O)NCC2(N(C)C)CCCCC2)cc1 | inactive: 13.3%
10 | CCN(CC)CC(C)C(C)OC(=O)C(O)(c1ccccc1)c1ccccc1 (centres undefined) | inactive: 19.8%
11 | COc1cc(SC)ccc1C(=O)NCC1(N(C)C)CCCCC1 | inactive: 12.9%
12 | CC(C)N1C(=O)CC2(CCN(CCOC(=O)C(O)(c3ccccc3)c3ccccc3)CC2)C1=O | inactive: -5.6%
13 | Cc1ccc(C(=O)NCC2(N3CCCCC3)CCCCC2)cc1 | inactive: 17.7%
14 | O=C(NCC1(N2CCCCC2)CCCCC1)c1cc([N+](=O)[O-])ccc1Cl | inactive: 14.4%
15 | CN1[C@@H]2CC[C@H]1CC(OC(=O)C(O)(c1ccccc1)c1ccccc1)C2 (some centres undefined) | inactive: 1.74%
16 | COc1ccc(Br)c(C(=O)NCC2(N3CCCCC3)CCCCC2)c1 | inactive: 9.95%
17 | CC(C)Oc1ccc(C(=O)NCC2(N(C)C)CCCCC2)cc1 | inactive: -25.2%
18 | CN(C)c1cccc(C(=O)NCC2(N(C)C)CCCCC2)c1 | inactive: 8.87%
19 | O=C(OC1CN2CCC1CC2)C(CO)(c1ccccc1)c1ccccc1 (centres undefined) | inactive: 12.4%
20 | COc1cccc(C(=O)NCC2(N3CCCCC3)CCCCC2)c1 | inactive: -4%
21 | COc1ccc(Cl)cc1C(=O)NCC1(N(C)C)CCCCC1 | inactive: 8.62%
22 | O=C(NCC1(N2CCCCC2)CCCCC1)c1cccc(Cl)c1 | inactive: 5.42%
23 | CN(C)C1(CNC(=O)c2ccc(Br)cc2)CCCCC1 | inactive: -12.7%
24 | COc1cc(C(=O)NCC2(N(C)C)CCCCC2)c([N+](=O)[O-])cc1OC | inactive: -48.7%
